Assay results taken from the NIST ThermoML archive (doi:10.1016/j.fluid.2011.11.005).

Assay: excess molar enthalpy (molar enthalpy of mixing); xn = mol fraction of the nth substance listed
Details: 101 kPa, Liquid, Flow calorimetry

CCCCOCCCC [dibutyl ether] + C1CCCCC1
313.15 K
Details	excess molar enthalpy [kcal/mol]
x1 = 0.0498	0.0176
x1 = 0.0997	0.0309
x1 = 0.1502	0.0409
x1 = 0.2003	0.0486
x1 = 0.2498	0.0537
x1 = 0.3001	0.0573
x1 = 0.3502	0.059
x1 = 0.3999	0.0597
x1 = 0.4499	0.0591
x1 = 0.4992	0.0577
x1 = 0.5497	0.0549
x1 = 0.6002	0.0518
x1 = 0.6493	0.0474
x1 = 0.6993	0.0425
x1 = 0.7502	0.0367
x1 = 0.7991	0.0299
x1 = 0.85	0.0234
x1 = 0.9001	0.0158
x1 = 0.9506	0.00782

CCCCOCCCC [dibutyl ether] + CC(C)CC(C)(C)C
313.15 K
Details	excess molar enthalpy [kcal/mol]
x1 = 0.0497	0.00626
x1 = 0.0996	0.0118
x1 = 0.1496	0.016
x1 = 0.1998	0.0197
x1 = 0.2501	0.0228
x1 = 0.2995	0.0253
x1 = 0.35	0.0271
x1 = 0.3997	0.0283
x1 = 0.4495	0.0288
x1 = 0.4994	0.029
x1 = 0.5495	0.0284
x1 = 0.5996	0.0274
x1 = 0.6499	0.0259
x1 = 0.6993	0.0237
x1 = 0.7499	0.021
x1 = 0.7996	0.0178
x1 = 0.8495	0.0141
x1 = 0.8995	0.00985
x1 = 0.9497	0.00516

CCCCOCCCC [dibutyl ether] + Cc1ccccc1
excess molar enthalpy [kcal/mol]
Details	298.15 K	313.15 K
x1 = 0.0497	0.00571	–
x1 = 0.0503	–	0.00535
x1 = 0.0995	–	0.00966
x1 = 0.1003	0.0101	–
x1 = 0.1501	–	0.0134
x1 = 0.1502	0.0134	–
x1 = 0.1999	0.016	–
x1 = 0.2006	–	0.0159
x1 = 0.2499	0.0177	–
x1 = 0.2505	–	0.0178
x1 = 0.2997	–	0.0191
x1 = 0.2999	0.019	–
x1 = 0.3497	–	0.0199
x1 = 0.3499	0.0196	–
x1 = 0.3995	0.0197	–
x1 = 0.4004	–	0.0202
x1 = 0.4495	–	0.0201
x1 = 0.4497	0.0194	–
x1 = 0.499	–	0.0194
x1 = 0.5002	0.0187	–
x1 = 0.5485	–	0.0186
x1 = 0.5498	0.0179	–
x1 = 0.5995	0.0166	–
x1 = 0.6005	–	0.0174
x1 = 0.6501	–	0.0159
x1 = 0.6502	0.0151	–
x1 = 0.6994	0.0135	0.0141
x1 = 0.7495	0.0115	–
x1 = 0.7508	–	0.0121
x1 = 0.799	0.00949	0.01
x1 = 0.8492	0.00717	0.00758
x1 = 0.8985	–	0.00521
x1 = 0.9	0.00478	–
x1 = 0.9498	0.00239	0.00232
